# This is a selection; strong and weak results do not stand in their true shares. Activity calls are given as the source filed them. Rule as the data show it: active = inhibition above about 50%; inactive = the rest.
# Sequences of proteins named here, by UniProt entry; tags and fusion partners are left off.
# UniProt P13612, whole entry, looked up: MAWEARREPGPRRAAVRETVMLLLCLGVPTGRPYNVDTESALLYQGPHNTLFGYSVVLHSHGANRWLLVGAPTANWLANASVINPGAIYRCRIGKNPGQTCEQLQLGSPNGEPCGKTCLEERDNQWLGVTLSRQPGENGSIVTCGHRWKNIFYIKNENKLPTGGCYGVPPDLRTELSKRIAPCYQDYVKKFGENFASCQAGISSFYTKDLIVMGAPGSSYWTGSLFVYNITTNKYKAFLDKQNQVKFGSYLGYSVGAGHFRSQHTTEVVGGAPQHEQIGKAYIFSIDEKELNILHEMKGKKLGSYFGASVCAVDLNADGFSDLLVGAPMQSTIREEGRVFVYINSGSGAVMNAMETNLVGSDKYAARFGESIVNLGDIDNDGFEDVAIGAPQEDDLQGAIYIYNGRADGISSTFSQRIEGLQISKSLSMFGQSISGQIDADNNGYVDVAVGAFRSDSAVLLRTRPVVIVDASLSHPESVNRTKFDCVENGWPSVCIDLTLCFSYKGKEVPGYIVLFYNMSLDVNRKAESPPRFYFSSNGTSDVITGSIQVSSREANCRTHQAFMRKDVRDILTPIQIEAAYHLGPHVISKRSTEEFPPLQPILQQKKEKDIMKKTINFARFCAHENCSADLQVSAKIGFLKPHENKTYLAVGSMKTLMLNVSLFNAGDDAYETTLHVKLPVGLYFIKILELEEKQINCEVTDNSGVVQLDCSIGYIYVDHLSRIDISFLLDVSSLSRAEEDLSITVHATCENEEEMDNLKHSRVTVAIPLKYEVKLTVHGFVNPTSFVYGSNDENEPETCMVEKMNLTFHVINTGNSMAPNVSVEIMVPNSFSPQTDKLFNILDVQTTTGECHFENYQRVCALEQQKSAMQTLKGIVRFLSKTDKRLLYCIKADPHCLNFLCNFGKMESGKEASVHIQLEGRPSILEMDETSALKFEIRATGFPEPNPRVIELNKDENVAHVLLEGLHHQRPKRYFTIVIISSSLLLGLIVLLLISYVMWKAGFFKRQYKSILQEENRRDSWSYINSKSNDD
# Molecular target: Integrin alpha-4 (Homo sapiens) (UniProt P13612)
# Assay: inhibition in human VLA-4 binding assay, primary screen, VLA-4 allosteric modulator project, MLPCN library, flow cytometry, VLA-4 expressing cells (AID 2557)
# Conditions: ligand binding flow cytometry, hits give high values, about 7 µM as worked out from the volumes in the protocol
row,SMILES,inhibition
1,C[N+]1=C2C=CC=CC=C2SC12C([N+](=O)[O-])=CC([N+](=O)[O-])=C[C-]2[N+](=O)[O-] (stereo unspecified),inactive: 5.48%
2,Nc1ccc([As](=O)(O)c2ccc(N)cc2)cc1,inactive: -0.84%
3,CCN(/C(=N/P(=O)(N1CCOCC1)N1CCOCC1)N1CCOCC1)c1ccc(OC)cc1,inactive: -4.1%
4,CN(C)C(=O)OCCc1n(C)cc[n+]1C,inactive: 3.91%
5,CC(C)=N/N=C(\N)N[N+](=O)[O-],inactive: 28.9%
6,CC1CCN(C(=O)Oc2c(Cl)cc(Cl)c3cccnc23)CC1,inactive: 9.87%
7,COc1ccc(C2=NCC(CBr)S2)cc1 (stereo unspecified),inactive: 16.6%
8,CC(=O)N1C2C3N(C(C)=O)C1C1N(C(C)=O)C(C(N1C(C)=O)N3C(C)=O)N2C(C)=O,inactive: 4.97%
9,O=[N+]([O-])c1cccc2n[nH]nc12,inactive: -9.05%
10,O=[N+]([O-])c1cc([N+](=O)[O-])c(CCNc2ccccc2)c([N+](=O)[O-])c1,inactive: 21.4%
11,CCc1nc2c(n1)c1c(non1O)c1c2no[n+]1[O-],inactive: 0.44%
12,Cc1ccc(NP(=O)(Oc2ccccc2)Oc2ccccc2)nc1,inactive: 6.18%
13,CC(C)(C)C(=O)NC(Sc1ccncn1)C(Cl)(Cl)Cl (stereo unspecified),inactive: 1.93%
14,O=[N+]([O-])c1ncn(CCn2ncnc2[N+](=O)[O-])n1,inactive: 9.91%
15,O=[N+]([O-])c1cccc(NC2=NCC(CBr)S2)c1 (stereo unspecified),inactive: 5.82%
16,O=C(O)CNc1ccc([As](=O)(O)O)cc1,inactive: -3.54%
17,O=C(Nc1cc([As](=O)(O)O)ccc1O)c1ccccc1,inactive: 9.02%
18,O=[N+]([O-])c1cc([N+](=O)[O-])c(CCN2CCOCC2)c([N+](=O)[O-])c1,inactive: -1.01%
19,CCN(N=Nc1nonc1N)c1nonc1N,inactive: 10.6%
20,Nc1cccc2ccc([As](=O)(O)O)cc12,inactive: -4.15%
21,CC(=O)Nc1ccc([As](=O)(O)O)cc1,inactive: 11.4%
22,O=C(O)c1ccccc1[As](=O)(O)O,inactive: 8.05%
23,O=P(Nc1nc2ccc(Cl)cc2s1)(c1ccccc1)c1ccccc1,inactive: 2.87%
24,CN(C(=O)Cc1ccc(Cl)c(Cl)c1)[C@H]1CCCC[C@@H]1N1CCCC1,inactive: 0.38%
25,Cc1ccc(NP(=O)(Oc2ccccc2F)Oc2ccccc2F)nc1,inactive: 1.69%
26,Cc1cc(SC(NC(=O)c2ccc(F)cc2)C(Cl)(Cl)Cl)ncn1 (stereo unspecified),inactive: 16.1%

row,SMILES,inhibition
1,CCOP(=O)(Nc1ccccc1)OCC,inactive: 2.95%
2,Nc1cc(N)c2nonc2c1[N+](=O)[O-],inactive: 13.4%
3,CC(C)CC(=O)NC(Sc1ccc(Cl)cc1)C(Cl)(Cl)Cl (stereo unspecified),inactive: 12.4%
4,O=C(NC(Sc1ccncn1)C(Cl)(Cl)Cl)c1ccccc1 (stereo unspecified),inactive: -2.52%
5,Cc1c2non([O-])c-2c(C)[n+](=O)[n+]1[O-],inactive: 19.3%
6,Oc1ccccc1CNc1ccccn1,inactive: 4.64%
7,NC(=O)c1cc([N+](=O)[O-])cc([N+](=O)[O-])c1N,inactive: -1.38%
8,Cc1ccc(N/C(=N/P(=O)(N2CCOCC2)N2CCOCC2)N2CCOCC2)cc1,inactive: 2.56%
9,CN(C(=O)Cc1ccc(Cl)c(Cl)c1)[C@H]1CCCC[C@H]1N1CCCC1,inactive: -10.9%
10,Cc1ccc(OP(=O)(Nc2nccs2)Oc2ccc(C)cc2)cc1,inactive: -5.14%
11,COc1ccccc1OP(=O)(Nc1ccc(C)cn1)Oc1ccccc1OC,inactive: 10.4%
12,CN1CCCC(OC(=O)C(c2ccccc2)c2ccccc2)C1 (stereo unspecified),inactive: 2.88%
13,Clc1ccc(Cl)c(NC2=NCC(CBr)S2)c1 (stereo unspecified),inactive: 4.22%
14,CC(=O)c1ccc(N2CC2c2ccncc2)cc1 (stereo unspecified),inactive: 4.72%
15,C[C@H]1OP(=O)(Oc2ccccc2)C[C@@H]2O[C@@H]21 (stereo partly specified),inactive: -10.1%
16,C[C@@H]1C=CCP(=O)(Oc2ccccc2)O1 (stereo partly specified),inactive: 11.5%
17,Cc1ccccc1CN(C)C(=O)COC(=O)C(O)(c1ccccc1)c1ccccc1,inactive: -13.7%
18,CC(=O)Nc1ccc(Oc2c([N+](=O)[O-])cc([N+](=O)[O-])cc2[N+](=O)[O-])cc1,inactive: 4.65%
19,CC(=O)Nc1ccc([As](=O)(O)O)c(O)c1,inactive: -8.48%
20,CCOc1ccc(C2=NCC(CBr)S2)cc1 (stereo unspecified),inactive: 1.53%
21,O=P1(Nc2nc3ccc(Cl)cc3s2)COc2ccccc2O1 (stereo unspecified),inactive: 2.87%
22,CC(C)(C)C(=O)NC(Sc1ccccc1)C(Cl)(Cl)Cl (stereo unspecified),inactive: 39%
23,Cc1ccc(OP(=O)(Nc2ccccn2)Oc2ccc(C)cc2)cc1,inactive: 7.79%
24,CC(=O)NC(SC(=S)N(CC(C)C)CC(C)C)C(Cl)(Cl)Cl (stereo unspecified),inactive: 12%
25,COC(=O)c1cc2c(s1)N=C(c1ccccc1)N(C)P2(=O)N1CCOCC1 (stereo unspecified),inactive: 10.8%

# Source: PubChem BioAssay AID2557 (NMMLSC, 2010)
